Literature values, collected in patent US20020082448A1, “Aminoguanidine carboxylates for the treatment of non-insulin-dependent diabetes mellitus” (The Upjohn Company, priority 1999, published 2002).

System: non-insulin dependent diabetic patients
Details: 1000-3000 mg/day; cited from earlier work

## CN(C)C(=N)N=C(N)N [Metformin]
  effect on hyperglycemia: reduce hyperglycemia
